Literature values in patent US5688981A, “Ethylenediaminetriacetic acid and N-acyl ethylenediaminetriacetic acid silver chelating agents and surfactants” (Hampshire Chemical Corp., priority 1996, dated 1997).
Only a part of the results on these compounds is given; other tests are left out.

Tests used:
protein = settings: background, other germicidal silver compounds
[1] = background

In the case of silver picrate, the “concentration with propensity towards protein precipitation” value (protein) is listed as 10^-4 M and the astringency [1] is listed as “astringent”.
